From ChEMBL document CHEMBL2218924, “A broad activity screen in support of a chemogenomic map for kinase signalling research and drug discovery” (Biochem J, 2013)
For part of these data: What follows is the remainder of the data, with few or none of the strong results. Only a part is listed here, and it is no random draw.

The chains behind the UniProt entries cited, without tags or fusion partners. Where a name states a change or a piece, a line headed by the entry shows the natural chain unless it says otherwise.
UniProt P20248, whole entry, looked up: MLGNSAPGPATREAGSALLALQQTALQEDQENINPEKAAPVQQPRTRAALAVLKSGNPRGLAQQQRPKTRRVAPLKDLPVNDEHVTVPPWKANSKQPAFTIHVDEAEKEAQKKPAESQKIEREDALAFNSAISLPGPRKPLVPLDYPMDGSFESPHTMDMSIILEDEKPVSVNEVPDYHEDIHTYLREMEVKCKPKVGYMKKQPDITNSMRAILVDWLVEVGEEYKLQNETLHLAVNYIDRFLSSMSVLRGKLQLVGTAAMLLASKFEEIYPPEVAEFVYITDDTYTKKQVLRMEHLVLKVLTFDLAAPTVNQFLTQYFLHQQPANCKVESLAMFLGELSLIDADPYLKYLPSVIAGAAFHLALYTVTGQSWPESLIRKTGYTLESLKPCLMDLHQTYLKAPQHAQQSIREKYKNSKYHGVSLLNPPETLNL
UniProt P78396: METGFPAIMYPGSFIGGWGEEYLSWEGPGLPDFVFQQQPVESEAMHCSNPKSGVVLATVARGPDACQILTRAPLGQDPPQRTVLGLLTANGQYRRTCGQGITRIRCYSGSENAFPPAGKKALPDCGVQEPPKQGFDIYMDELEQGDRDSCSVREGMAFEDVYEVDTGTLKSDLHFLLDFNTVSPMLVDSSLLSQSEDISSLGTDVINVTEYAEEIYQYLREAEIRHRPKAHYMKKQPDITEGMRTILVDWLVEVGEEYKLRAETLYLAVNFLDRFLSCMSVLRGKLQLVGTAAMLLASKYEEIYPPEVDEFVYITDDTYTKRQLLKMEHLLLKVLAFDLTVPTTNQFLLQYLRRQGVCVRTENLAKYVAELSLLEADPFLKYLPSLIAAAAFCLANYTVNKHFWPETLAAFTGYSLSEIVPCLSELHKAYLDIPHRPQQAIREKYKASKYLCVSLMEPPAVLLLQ
UniProt Q9UIK4: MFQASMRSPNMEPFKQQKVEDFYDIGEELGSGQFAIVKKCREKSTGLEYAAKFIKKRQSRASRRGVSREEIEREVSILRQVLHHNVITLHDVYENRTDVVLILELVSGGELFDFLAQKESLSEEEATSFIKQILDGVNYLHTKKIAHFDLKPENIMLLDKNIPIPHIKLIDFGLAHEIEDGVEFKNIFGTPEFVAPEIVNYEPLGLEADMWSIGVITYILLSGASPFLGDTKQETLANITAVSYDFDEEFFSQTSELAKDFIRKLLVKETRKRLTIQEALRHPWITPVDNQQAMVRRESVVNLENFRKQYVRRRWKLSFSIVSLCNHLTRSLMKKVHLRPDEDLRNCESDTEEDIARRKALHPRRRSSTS
UniProt Q06187: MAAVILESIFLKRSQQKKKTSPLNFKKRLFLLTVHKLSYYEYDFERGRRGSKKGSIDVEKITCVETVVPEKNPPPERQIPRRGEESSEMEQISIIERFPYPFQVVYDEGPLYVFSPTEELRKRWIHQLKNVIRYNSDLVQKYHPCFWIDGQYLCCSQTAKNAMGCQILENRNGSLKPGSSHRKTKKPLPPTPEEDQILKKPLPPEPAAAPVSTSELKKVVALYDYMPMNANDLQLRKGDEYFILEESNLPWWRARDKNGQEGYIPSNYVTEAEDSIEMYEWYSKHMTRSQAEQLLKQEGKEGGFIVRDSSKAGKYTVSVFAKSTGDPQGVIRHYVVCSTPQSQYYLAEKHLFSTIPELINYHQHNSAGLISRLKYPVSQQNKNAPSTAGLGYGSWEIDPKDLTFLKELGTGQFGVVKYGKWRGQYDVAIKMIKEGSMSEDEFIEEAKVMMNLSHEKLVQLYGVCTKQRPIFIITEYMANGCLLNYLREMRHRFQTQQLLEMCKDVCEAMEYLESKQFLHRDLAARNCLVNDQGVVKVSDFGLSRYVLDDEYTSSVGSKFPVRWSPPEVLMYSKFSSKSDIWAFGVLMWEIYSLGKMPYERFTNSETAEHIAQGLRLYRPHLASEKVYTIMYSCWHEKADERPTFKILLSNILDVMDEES
UniProt Q05513: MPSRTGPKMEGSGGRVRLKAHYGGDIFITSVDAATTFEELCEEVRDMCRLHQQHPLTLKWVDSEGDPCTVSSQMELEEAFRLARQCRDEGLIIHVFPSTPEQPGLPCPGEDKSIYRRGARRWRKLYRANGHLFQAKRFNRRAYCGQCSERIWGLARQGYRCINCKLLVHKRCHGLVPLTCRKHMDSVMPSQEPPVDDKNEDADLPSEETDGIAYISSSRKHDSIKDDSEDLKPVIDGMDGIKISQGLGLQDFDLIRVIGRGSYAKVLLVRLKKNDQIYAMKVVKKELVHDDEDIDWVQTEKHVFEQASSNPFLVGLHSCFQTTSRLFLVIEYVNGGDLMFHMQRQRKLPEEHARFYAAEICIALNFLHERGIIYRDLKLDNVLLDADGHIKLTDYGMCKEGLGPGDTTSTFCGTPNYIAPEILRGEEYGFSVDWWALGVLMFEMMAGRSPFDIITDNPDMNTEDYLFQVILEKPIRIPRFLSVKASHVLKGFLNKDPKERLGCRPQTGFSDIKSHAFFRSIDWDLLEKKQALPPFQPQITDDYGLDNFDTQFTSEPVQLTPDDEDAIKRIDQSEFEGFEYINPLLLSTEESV
UniProt Q9NYY3: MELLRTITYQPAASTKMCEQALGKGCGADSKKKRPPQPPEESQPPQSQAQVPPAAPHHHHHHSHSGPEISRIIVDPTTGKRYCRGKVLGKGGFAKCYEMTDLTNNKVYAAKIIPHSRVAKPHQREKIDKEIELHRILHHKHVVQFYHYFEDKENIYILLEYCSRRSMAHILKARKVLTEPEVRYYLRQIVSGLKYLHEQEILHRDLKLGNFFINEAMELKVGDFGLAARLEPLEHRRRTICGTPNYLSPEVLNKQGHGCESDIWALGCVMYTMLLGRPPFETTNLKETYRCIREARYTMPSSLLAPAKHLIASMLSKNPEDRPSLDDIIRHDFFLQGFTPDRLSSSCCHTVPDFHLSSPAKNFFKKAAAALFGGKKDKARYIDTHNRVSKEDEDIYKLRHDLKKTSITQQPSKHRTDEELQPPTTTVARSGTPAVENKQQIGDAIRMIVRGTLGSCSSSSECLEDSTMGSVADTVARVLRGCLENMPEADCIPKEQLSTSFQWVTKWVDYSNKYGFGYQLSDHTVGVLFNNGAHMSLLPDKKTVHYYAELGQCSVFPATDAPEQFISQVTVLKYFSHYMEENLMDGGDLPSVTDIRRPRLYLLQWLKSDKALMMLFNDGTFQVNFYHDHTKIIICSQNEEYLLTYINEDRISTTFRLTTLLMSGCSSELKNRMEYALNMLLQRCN

How the values were obtained:
[1] = molecular target: Cyclin-dependent kinase 2/cyclin A (Homo sapiens) (UniProt P24941+P20248+P78396); details: at 1 µM
[2] = molecular target: Death-associated protein kinase 2 (Homo sapiens) (UniProt Q9UIK4); details: at 1 µM
[3] = molecular target: Tyrosine-protein kinase BTK (Homo sapiens) (UniProt Q06187); details: at 1 µM
[4] = molecular target: Protein kinase C zeta type (Homo sapiens) (UniProt Q05513); details: at 10 µM
[5] = molecular target: Serine/threonine-protein kinase PLK2 (Homo sapiens) (UniProt Q9NYY3); details: at 1 µM;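 also: residual PLK2 kinase activity expressed as percent of uninhibited control, measured in MOPS buffer at pH 7.0 with EDTA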
[6] = molecular target: cAMP-dependent protein kinase catalytic subunit alpha (Homo sapiens) (UniProt P17612); details: at 10 µM

| SMILES | residual activity [1] [%] | residual activity [2] [%] | residual activity [3] [%] | residual activity [4] [%] | residual activity [5] [%] | residual activity [6] [%] |
| --- | --- | --- | --- | --- | --- | --- |
| COc1cc2ncnc(Nc3ccc(O)c(Br)c3)c2cc1OC | 110 | 96 |  |  |  |  |
| COc1ccc(S(=O)(=O)N(CCO)c2ccccc2CN(C)C/C=C/c2ccc(Cl)cc2)cc1 |  |  | 89 | 105 | 110 | 118 |
